This experiment addresses purified human Factor XIa (Homo sapiens (Human), UniProt P03951). Description: Factor XIa assay (chromogenic substrate S-2366 hydrolysis, Ki). Conditions: read-out: Factor XIa Ki, substrate S-2366, pH 7.4. As to the method:
The effectiveness of compounds of the present invention as inhibitors of the coagulation Factors XIa, VIIa, IXa, Xa, XIIa, plasma kallikrein or thrombin, can be determined using a relevant purified serine protease, respectively, and an appropriate synthetic substrate. The rate of hydrolysis of the chromogenic or fluorogenic substrate by the relevant serine protease was measured both in the absence and presence of compounds of the present invention. […] A decrease in the rate of absorbance or fluorescence change in the presence of inhibitor is indicative of enzyme inhibition. Such methods are known to one skilled in the art. The results of this assay are expressed as the inhibitory constant, Ki.
Factor XIa determinations were made in 50 mM HEPES buffer at pH 7.4 containing 145 mM NaCl, 5 mM KCl, and 0.1% PEG 8000 (polyethylene glycol; JT Baker or Fisher Scientific). […]
The Michaelis constant, Km, for substrate hydrolysis by each protease, was determined at 25° C. using the method of Lineweaver and Burk. Values of Ki were determined by allowing the protease to react with the substrate in the presence of the inhibitor. Reactions were allowed to go for periods of 20-180 minutes (depending on the protease) and the velocities (rate of absorbance or fluorescence change versus time) were measured. […]

Protein sequences, listed by entry. Tags and fused reporters are not part of them. Residues count along the entry.
UniProt P03951, 388-625 limits assumed: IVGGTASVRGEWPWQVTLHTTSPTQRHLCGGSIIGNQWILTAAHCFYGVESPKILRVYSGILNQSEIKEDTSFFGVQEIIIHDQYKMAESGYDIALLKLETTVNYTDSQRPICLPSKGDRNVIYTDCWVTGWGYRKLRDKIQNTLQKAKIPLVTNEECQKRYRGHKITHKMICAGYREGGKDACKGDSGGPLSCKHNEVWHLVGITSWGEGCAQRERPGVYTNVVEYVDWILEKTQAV
UniProt P03951, 19-387 partner limits assumed: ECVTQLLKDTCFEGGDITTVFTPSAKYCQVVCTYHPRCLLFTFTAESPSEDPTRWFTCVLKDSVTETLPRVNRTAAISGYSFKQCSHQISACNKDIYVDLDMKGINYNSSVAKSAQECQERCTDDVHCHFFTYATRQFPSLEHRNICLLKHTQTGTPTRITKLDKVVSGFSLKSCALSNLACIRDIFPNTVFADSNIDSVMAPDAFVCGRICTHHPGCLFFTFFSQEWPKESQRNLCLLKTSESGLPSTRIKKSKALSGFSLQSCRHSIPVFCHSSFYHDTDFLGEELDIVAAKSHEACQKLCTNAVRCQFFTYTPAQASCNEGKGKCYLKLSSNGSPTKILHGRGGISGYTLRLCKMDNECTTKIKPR

By Ki is commonly meant a dissociation constant, usually derived from enzyme kinetics or from competition with a known ligand.

With `CNc1ccc2c(c1)NCCCc1nc(ccc1F)C[C@H](NC(=O)/C=C/c1cc(Cl)ccc1-n1cnnn1)c1nc-2c(Cl)[nH]1`, the Ki was 0.107 µM.
The result for `CNc1ccc2c(c1)NCCCc1nc(ccc1F)C[C@@H](NC(=O)/C=C/c1cc(Cl)ccc1-n1cnnn1)c1nc-2c(Cl)[nH]1` reads 7.43 µM.

These data come from patent US8828983B2, “Macrocycles as factor XIa inhibitors” (Bristol-Myers Squibb Company, priority 2010, dated 2014).
